# Measurements from PubChem BioAssay AID2235 (The Scripps Research Institute Molecular Screening Center, 2010).
# Chains of the proteins cited; added tags and fusions are not shown.
# UniProt P62136, whole entry: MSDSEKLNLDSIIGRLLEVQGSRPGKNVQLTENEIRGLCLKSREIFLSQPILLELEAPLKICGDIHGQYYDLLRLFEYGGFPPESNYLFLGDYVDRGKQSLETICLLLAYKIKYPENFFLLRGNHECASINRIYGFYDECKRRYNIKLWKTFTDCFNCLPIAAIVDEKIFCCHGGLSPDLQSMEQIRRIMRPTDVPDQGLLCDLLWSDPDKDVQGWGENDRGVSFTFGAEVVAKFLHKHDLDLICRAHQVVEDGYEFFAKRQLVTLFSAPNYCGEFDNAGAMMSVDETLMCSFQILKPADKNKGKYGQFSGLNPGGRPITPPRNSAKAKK
# The list shows a part of the results, in another mix than the full data. The source made the active and inactive calls.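 How the source made its calls: active means inhibition above the mean inhibition of all tested compounds plus 3 SD, computed separately for each screening campaign (cut at about 15% in these data); inactive means the rest.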
# Target: Serine/threonine-protein phosphatase PP1-alpha catalytic subunit (Homo sapiens) (UniProt P62136)
# Assay: PP1-alpha phosphatase inhibitors, primary screen, counter-screen for PP5 inhibitor project, biochemical, fluorescence, OMFP substrate, single point (AID 2235)
# Conditions: purified PP1alpha, at 6.7 µM, active compounds read high
row,SMILES,inhibition
1,COc1ccc(NC2CCN(CCc3ccccc3)CC2)c(OC)c1,inactive: -2.61%
2,O=C(NCC1(N2CCCCC2)CCCCC1)c1ccc(F)cc1,inactive: -4.23%
3,CCOc1ccc(C)cc1CN(CCCl)CCCl,inactive: -1.2%
4,Cc1ccc(OCC(C)C)c(CN(CCCl)CCCl)c1,inactive: -3.96%
5,CCOC(=O)N1CCC(Nc2cccc(C)c2)CC1,inactive: 0.16%
6,CSc1ccccc1C(=O)NCC1(N2CCCCC2)CCCCC1,inactive: -9.96%
7,CC(C)(C)OC(=O)N1CCC(N(C(=O)c2ccccc2)c2ccc(F)cc2)CC1,inactive: 1.15%
8,COc1ccc(C(=O)NCC2(N3CCCCC3)CCCCC2)c(OC)c1OC,inactive: -0.77%
9,COc1ccc(C(=O)NCC2(N3CCCCC3)CCCCC2)cc1,inactive: -3.97%
10,O=C(NCC1(N2CCCCC2)CCCCC1)c1cccs1,inactive: -4.41%
11,O=C(NCC1(N2CCCCC2)CCCCC1)c1ccc(=O)[nH]c1,inactive: -2.36%
12,COc1ccc(Cl)cc1C(=O)NCC1(N2CCOCC2)CCCCC1,inactive: -1.73%
13,N#CC1(Nc2ccccc2)CCN(Cc2ccccc2)CC1,inactive: -3.95%
14,O=C(NCC1(N2CCCCC2)CCCCC1)c1ccc(Cl)s1,inactive: 2.66%
15,O=C(OC1CN2CCC1CC2)C1c2ccccc2Oc2ccccc21 (stereo unspecified),inactive: 6.61%
16,CCOC(=O)N1CCC(Nc2ccc(OC)cc2)CC1,inactive: 0.94%
17,Cc1cc(C)cc(N(C(=O)c2ccccc2)C2CCN(C(=O)OC(C)(C)C)CC2)c1,inactive: 11.1%
18,O=C(NCC1(N2CCCCC2)CCCCC1)c1ccc(Cl)nc1,inactive: 0.88%
19,O=C(NCC1(N2CCOCC2)CCCCC1)c1cc2ccccc2o1,inactive: -2.78%
20,COc1cc(OC)c(C(=O)NCC2(N(C)C)CCCCC2)cc1OC,inactive: -3.83%
21,CC(C)c1ccc(NC2CCN(C(=O)OC(C)(C)C)CC2)cc1,inactive: -0.39%

row,SMILES,inhibition
1,CN(C)c1cccc(C(=O)NCC2(N3CCCCC3)CCCCC2)c1,inactive: -4.46%
2,COc1ccc(CN(CCCl)CCCl)cc1Cl,inactive: -2.6%
3,CN1CCC(Nc2cccc(F)c2)CC1,inactive: 1.48%
4,O=C(NCC1(N2CCCCC2)CCCCC1)c1cncc(Br)c1,inactive: -1.43%
5,N#CC1(Nc2ccccc2)CCN(CCc2ccccc2)CC1,inactive: 1.91%
6,CCN1CCC(Nc2ccc(Cl)cc2)CC1,inactive: -0.39%
7,O=C(NCC1(N2CCCCC2)CCCCC1)c1cccc([N+](=O)[O-])c1,inactive: -0.4%
8,O=C(NCC1(N2CCCCC2)CCCCC1)c1ccc(OC(F)F)cc1,inactive: 4.33%
9,O=C(NCC1(N2CCOCC2)CCCCC1)c1cc(=O)[nH]c2ccccc12,inactive: -13.3%
10,COc1cc(C(=O)NCC2(N3CCCCC3)CCCCC2)ccc1OC(F)F,inactive: -3.76%
11,COc1ccc(NC2CCN(C(=O)OC(C)(C)C)CC2)cc1,inactive: 0.17%
12,CN1CCN(CCOC(=O)C(O)(c2ccccc2)c2ccccc2)CC1,inactive: -3.49%
13,O=C(NCC1(N2CCCCC2)CCCCC1)c1cccc(C(F)(F)F)c1,inactive: -2.53%
14,N#Cc1ccc(C(=O)NCC2(N3CCCCC3)CCCCC2)cc1,inactive: -7.87%
15,CC(C)(C)OC(=O)N1CCC(N(C(=O)c2ccccc2)c2ccc(Cl)cc2)CC1,inactive: 0.87%
16,CN(C)C1(CNC(=O)c2cccc(C#N)c2)CCCCC1,inactive: -2.8%
17,CCCN1CCC(Nc2cc(OC)cc(OC)c2)CC1,inactive: -2.78%
18,c1ccc(CN2CCC(Nc3ccccc3)CC2)cc1,inactive: -5.79%
19,COc1ccc(C(=O)NCC2(N3CCOCC3)CCCCC2)cc1OC,inactive: -1.25%
20,O=C(NCC1(N2CCOCC2)CCCCC1)c1cc(Br)ccc1Cl,inactive: -3.28%
21,CCc1cc(C(=O)NCC2(N3CCCCC3)CCCCC2)sc1C,inactive: -5.07%

row,SMILES,inhibition
1,O=C(OC1CN2CCC1CC2)C1c2ccccc2C=Cc2ccccc21 (stereo unspecified),inactive: -3.35%
2,CCOC(=O)N1CCC(Nc2ccc(C)cc2)CC1,inactive: 0.8%
3,N/C(=N\O)c1c(N)no[n+]1[O-],inactive: 1.66%
4,O=C(O)C1(Nc2ccccc2)CCN(Cc2ccccc2)CC1,inactive: 8.11%
5,CC(C)(C)OC(=O)N1CCC(Nc2ccccc2)CC1,inactive: -4.35%
6,CCCOc1ccc(C(=O)NCC2(N(C)C)CCCCC2)cc1,inactive: -1.88%
7,CN1CCC(Nc2ccc(F)c(Cl)c2)CC1,inactive: -3.21%
8,CCOc1ncccc1C(=O)NCC1(N2CCOCC2)CCCCC1,inactive: -2.68%
9,CN1CCC(Nc2ccc(Cl)cc2)CC1,inactive: -3.43%
10,CCCOc1ccc(C)cc1CN(CCCl)CCCl,inactive: -2.99%
11,COc1cccc(C(=O)N(c2cc(C)cc(C)c2)C2CCN(C(=O)OC(C)(C)C)CC2)c1,inactive: 2.68%
12,COc1cc(OC)cc(C(=O)NCC2(N3CCOCC3)CCCCC2)c1,inactive: 0.27%
13,CCC(CO)(C(=O)OC1CN2CCC1CC2)c1ccccc1 (stereo unspecified),inactive: -1.94%
14,Fc1ccccc1NC1CCN(Cc2ccccc2)CC1,inactive: -0.12%
15,Cc1ccc(C(=O)NCC2(N3CCCCC3)CCCCC2)o1,inactive: -3.73%
16,COc1cc(OC)cc(C(=O)NCC2(N3CCCCC3)CCCCC2)c1,inactive: 2.49%
17,CN(C)c1ccc(C(=O)NCC2(N3CCCCC3)CCCCC2)cc1,inactive: -1.14%
18,O=C(NCC1(N2CCCCC2)CCCCC1)c1ccco1,inactive: -6.71%
19,CCN1CCC(Nc2cccc(F)c2)CC1,inactive: 1.28%
